Values of other authors as cited in patent publication US20230220377A1, “SINGLE CELL ANALYSIS” (BioSkryb Genomics, Inc., priority 2019, published 2023).

System: FLT3
Details: relapsed or refractory AML patients; monotherapy with FLT3 inhibitor

CC(C)(C)c1cc(NC(=O)Nc2ccc(-c3cn4c(n3)sc3cc(OCCN5CCOCC5)ccc34)cc2)no1 [quizartinib]
composite complete remission: approximately 50%
